Laboratory results from paper PMC5923235 (2018).

Key:
[1] = biological target: T1, NTS1 V307C^6.34 (TM6) in the Cys-depleted background of rat neurotensin receptor 1 (rat, UniProt P20789, C172S^3.55 | C278S^IC3 | C332S^6.59 | C386S^C-term | C388S^C-term | V307C^6.34, Cys307 labelled with Alexa Fluor 488 or Alexa Fluor 555 (ensemble FRET), MTSL spin label (DEER)); assay: MST; 5 uM NT8-13, detergent
[2] = biological target: T2, wild-type NTS1 (rat neurotensin receptor 1) (rat, UniProt P20789 43-424); assay: MST; 5 uM NT8-13, detergent
T2 chain: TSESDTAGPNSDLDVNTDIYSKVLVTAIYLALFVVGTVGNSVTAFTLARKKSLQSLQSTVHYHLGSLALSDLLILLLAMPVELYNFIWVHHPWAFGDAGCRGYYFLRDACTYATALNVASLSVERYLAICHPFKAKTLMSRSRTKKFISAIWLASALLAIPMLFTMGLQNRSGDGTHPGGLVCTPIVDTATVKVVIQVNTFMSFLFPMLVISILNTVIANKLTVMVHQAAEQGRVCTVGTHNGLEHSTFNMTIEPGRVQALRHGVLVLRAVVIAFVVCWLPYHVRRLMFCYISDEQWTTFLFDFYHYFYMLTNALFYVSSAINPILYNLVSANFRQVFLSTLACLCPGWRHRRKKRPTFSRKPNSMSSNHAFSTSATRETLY

[3] = biological target: T3, NTS1 T186C^4.42 (TM4) in the Cys-depleted background of rat neurotensin receptor 1 (rat, UniProt P20789, C172S^3.55 | C278S^IC3 | C332S^6.59 | C386S^C-term | C388S^C-term | T186C^4.42, Cys186 labelled with Cy3 or Cy5 (smFRET), Alexa Fluor 488 or Alexa Fluor 555 (ensemble FRET), Alexa Fluor 488 (test with Gαi1), MTSL spin label (DEER)); assay: MST; 5 uM NT8-13, detergent
[4] = biological target: T1, NTS1 V307C^6.34 (TM6) in the …; assay: MST; 5 uM NT8-13 + 0.5 mM GTPγS, detergent
[5] = biological target: T3, NTS1 T186C^4.42 (TM4) in the …; assay: MST; 5 uM NT8-13 + 0.5 mM GTPγS, detergent

Kd [1]: 1000 nM
Kd [2]: 500 nM
Kd [3]: 1000 nM
Kd [4]: 19000 nM
Kd [5]: 60000 nM
B1: Gαi1 (natural protein)
chain: MGCTLSAEDKAAVERSKMIDRNLREDGEKAAREVKLLLLGAGESGKSTIVKQMKIIHEAGYSEEECKQYKAVVYSNTIQSIIAIIRAMGRLKIDFGDSARADDARQLFVLAGAAEEGFMTAELAGVIKRLWKDSGVQACFNRSREYQLNDSAAYYLNDLDRIAQPNYIPTQQDVLRTRVKTTGIVETHFTFKDLHFKMFDVGGQRSERKKWIHCFEGVTAIIFCVALSDYDLVLAEDEEMNRMHESMKLFDSICNNKWFTDTSIILFLNKKDLFEEKIKKSPLTICYPEYAGSNTYEEAAAYIQCQFEDLNKRKDTKEIYTHFTCATDTKNVQFVFDAVTDVIIKNNLKDCGLF
